Here are results for one compound from patent US20140221283A1 (Indiana University Research and Technology Corporation, priority 2011, published 2014).

Protein sequences, listed by entry. Tags and fused reporters are not part of them. Residues count along the entry.
UniProt P43220, 24-463: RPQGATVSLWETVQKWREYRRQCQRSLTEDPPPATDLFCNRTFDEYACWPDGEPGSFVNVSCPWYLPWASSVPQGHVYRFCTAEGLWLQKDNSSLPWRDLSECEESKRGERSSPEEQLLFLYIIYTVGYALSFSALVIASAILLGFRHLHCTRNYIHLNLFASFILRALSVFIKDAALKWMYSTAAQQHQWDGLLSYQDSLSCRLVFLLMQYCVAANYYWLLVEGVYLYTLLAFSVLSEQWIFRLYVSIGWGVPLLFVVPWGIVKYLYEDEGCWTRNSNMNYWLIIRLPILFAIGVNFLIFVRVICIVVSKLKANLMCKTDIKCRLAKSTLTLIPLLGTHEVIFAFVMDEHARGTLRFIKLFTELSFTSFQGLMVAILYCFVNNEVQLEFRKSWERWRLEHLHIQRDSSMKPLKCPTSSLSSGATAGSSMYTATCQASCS
UniProt P47871, 26-477: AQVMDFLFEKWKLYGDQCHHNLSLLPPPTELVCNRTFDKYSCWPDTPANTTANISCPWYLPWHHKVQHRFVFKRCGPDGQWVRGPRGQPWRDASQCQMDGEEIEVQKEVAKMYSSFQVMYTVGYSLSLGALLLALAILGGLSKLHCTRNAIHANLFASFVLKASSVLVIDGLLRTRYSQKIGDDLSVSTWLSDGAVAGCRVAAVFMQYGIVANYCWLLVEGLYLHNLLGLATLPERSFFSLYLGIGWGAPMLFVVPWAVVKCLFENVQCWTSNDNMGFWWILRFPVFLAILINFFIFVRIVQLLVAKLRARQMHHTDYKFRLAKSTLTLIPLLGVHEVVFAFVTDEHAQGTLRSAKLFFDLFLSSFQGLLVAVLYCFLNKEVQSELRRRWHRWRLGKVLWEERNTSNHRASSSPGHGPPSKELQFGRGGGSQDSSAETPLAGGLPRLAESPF

What all share (format): cell-based
One experiment addresses human GLP-1R (Homo sapiens, UniProt P43220). In words: firefly luciferase-based cAMP reporter assay, HEK293 cells co-transfected with GLP-1 receptor (Example 3). More on the design: expressed in transfected cells; host or cells: HEK293. Here is the method: (§1) The ability of each peptide to induce cAMP was measured in a firefly luciferase-based reporter assay.
(§2) At the end of the incubation, 100 μL of LucLite luminescence substrate reagent (Perkin Elmer, Wellesley, Mass.) were added to each well.

The next experiment deals with T1, glucagon receptor (Homo sapiens, UniProt P47871).
T1 construct: expressed in transfected cells; host or cells: HEK293
In words: firefly luciferase-based cAMP reporter assay, HEK293 cells co-transfected with glucagon receptor (Example 3). Here is the method:
as §1, §2

The target in the next experiment is T2, GIP receptor (Homo sapiens, UniProt P48546).
T2 construct: expressed in transfected cells; host or cells: HEK293
T2 sequence (P48546 22-466): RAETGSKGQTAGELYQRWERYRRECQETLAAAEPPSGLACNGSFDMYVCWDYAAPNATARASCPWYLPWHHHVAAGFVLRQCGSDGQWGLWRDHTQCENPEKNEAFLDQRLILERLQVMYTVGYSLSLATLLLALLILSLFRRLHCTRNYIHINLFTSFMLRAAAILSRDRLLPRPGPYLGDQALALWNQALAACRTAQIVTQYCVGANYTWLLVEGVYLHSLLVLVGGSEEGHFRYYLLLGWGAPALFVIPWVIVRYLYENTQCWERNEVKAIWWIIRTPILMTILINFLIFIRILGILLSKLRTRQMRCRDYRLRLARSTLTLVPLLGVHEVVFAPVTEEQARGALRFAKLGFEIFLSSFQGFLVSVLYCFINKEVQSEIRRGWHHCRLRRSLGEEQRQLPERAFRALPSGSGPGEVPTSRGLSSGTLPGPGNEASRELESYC
In words: firefly luciferase-based cAMP reporter assay, HEK293 cells, GIP receptor (Example 3). As for the experimental part: It is understood that a lower EC50 indicates higher activity or potency at the receptor.
as §1, §2
In some instances, the in vitro agonist activity at the GIP receptor was also tested.

Structures are written as SMILES.

For `CCCCCCCCCCCCCCCC(=O)N[C@@H](CCC(=O)NCCCC[C@H](NC(=O)[C@H](CC(=O)O)NC(=O)[C@H](CO)NC(=O)[C@@H](NC(=O)[C@H](Cc1ccccc1)NC(=O)[C@@H](NC(=O)CNC(=O)[C@H](CCC(N)=O)NC(=O)[C@@H](CO)NC(=O)[C@@H](N)Cc1c[nH]cn1)[C@@H](C)O)[C@@H](C)O)C(=O)N[C@@H](CO)C(=O)N[C@@H](CCCCN)C(=O)N[C@@H](Cc1ccc(O)cc1)C(=O)N[C@@H](CC(C)C)C(=O)N[C@@H](CC(=O)O)C(=O)N[C@@H](CCC(=O)O)C(=O)N[C@@H](CCCNC(=N)N)C(=O)N[C@@H](C)C(=O)N[C@@H](C)C(=O)N[C@@H](CCC(N)=O)C(=O)N[C@@H](CC(=O)O)C(=O)N[C@@H](Cc1ccccc1)C(=O)N[C@H](C(=O)N[C@@H](CCC(N)=O)C(=O)N[C@@H](Cc1c[nH]c2ccccc12)C(=O)N[C@@H](CC(C)C)C(=O)N[C@@H](CC(C)C)C(=O)N[C@@H](CC(=O)O)C(=O)N[C@H](C(=O)N[C@@H](CCCCN)C(=O)N[C@@H](CCC(N)=O)C(=O)O)[C@@H](C)O)C(C)C)C(=O)O` [SEQ ID NO: 14], the half-maximal effective concentration (EC50) on human GLP-1R was found to be 3 pM; on glucagon receptor, 3 pM; at GIP receptor, 976000 pM.
